Data on 1 compound can be found in US20230220021A1, “CYCLIC PEPTIDE INHIBITORS OF PSD-95 AND USES THEREOF” (University of Copenhagen, priority 2020, published 2023).

What all share (format): binding
One experiment deals with T1, PSD-95-PDZ2 V229A (Homo sapiens, UniProt P78352, V229A).
T1 construct: measured against recombinantly expressed PSD-95-PDZ2 Ala mutants in FP saturation experiments; 7xHis (N); made in house; host or cells: Escherichia coli B21 pLys
The experiment is described as follows: FP saturation assay against PSD-95-PDZ2 Ala mutant V229A. The note with it: V229A mutation; TAMRA probes. From the text:
(§1) Protein expression. The pRSET plasmids encoding the (7× His)-PSD-95-PDZ2 wild type and (7× His)-PSD-95-PDZ2-V178C sequences were obtained as described previously.^38 The DNA constructs encoding the PSD-95-PDZ2 mutants (K165A, K168A, F172A, F1721, S173A, N180A, T192A, K193A, H225A, E226A, V229A K233A) were produced using Phusion® site-directed mutagenesis kit on the pRSET plasmid of the wild type PSD-95-PDZ2 and with the primers listed in Table 1. The PSD-95-PDZ2 mutants were transformed and expressed as previously described,^38 in Escherichia coli B21 pLys cells at 37° C. and 0.5 mM isopropyl-D-thiogalactopyranoside (IPTG). […] Protein concentration was measured by NanoDrop 1000 and mass determination of proteins was analyzed using an Agilent 6410 triple quadrupole LC-MS with a Poroshell column, 300SB-C18 2.1×75 mm in a linear gradient of 5% to 60% B, using a binary solvent system [A: H2O/MeCN/TFA, 94.9/5/0.1 and B: H2O/MeCN/TFA, 5/94.9/0.1] with a flow of 0.75 mL min^−1. […] The proteins were analyzed using the following gradient: from 5% to 60% B for 4 min. and from 60 to 100% B from 4 to 4.5 min.
(§2) Fluorescence polarization (FP). […] Fluorescence polarization was measured using a Safire 2 plate reader. […] Then, the polarization was fitted into a one-site binding model using Prism software 8.0 (GraphPad), from which the Kd can be measured. […]

A further experiment addresses T2, PSD-95-PDZ2 K165A (Homo sapiens, UniProt P78352, K165A).
T2 construct: measured against recombinantly expressed PSD-95-PDZ2 Ala mutants in FP saturation experiments; 7xHis (N); made in house; host or cells: Escherichia coli B21 pLys
The experiment is described as follows: FP saturation assay against PSD-95-PDZ2 Ala mutant K165A. The following applies: K165 mutation; TAMRA probes.
Description: as §1, §2

A further experiment concerns the target T3, PSD-95-PDZ2 H225A (Homo sapiens, UniProt P78352, H225A).
T3 construct: measured against recombinantly expressed PSD-95-PDZ2 Ala mutants in FP saturation experiments; 7xHis (N); made in house; host or cells: Escherichia coli B21 pLys
The experiment is described as follows: FP saturation assay against PSD-95-PDZ2 Ala mutant H225A. The note with it: H225A mutation; TAMRA probes.
Description: as §1, §2

Structures are written as SMILES.

`CC[C@H](C)[C@@H]1NC(=O)[C@H]([C@@H](C)O)NC(=O)[C@H](CCCCN)NC(=O)[C@@H]2CCCN2C(=O)[C@H]([C@@H](C)O)NC(=O)CNC(=O)[C@H](CC(=O)O)NC(=O)CNC(=O)[C@H]([C@@H](C)O)NC(=O)[C@H](Cc2ccccc2)NC(=O)[C@H]([C@@H](C)O)NC(=O)[C@H]([C@@H](C)O)NC(=O)[C@H](CCC(=O)O)NC(=O)[C@H](CC(C)C)NC(=O)[C@H](Cc2c[nH]cn2)NC(=O)[C@H]([C@@H](C)O)NC(=O)[C@H](CSC2CC(=O)N(CCNC(=O)c3ccc4c(c3)C(=O)OC43c4ccc(N(C)C)cc4Oc4cc(N(C)C)ccc43)C2=O)NC(=O)CNC(=O)[C@H]2CCCN2C(=O)[C@H](CCC(N)=O)NC(=O)[C@H]([C@@H](C)O)NC(=O)[C@H](C(C)C)NC(=O)[C@H](CCCNC(=N)N)NC1=O` (stereo partly drawn) [cyclic nNOS TAM RA probe]: the “fold loss in affinity (Kd mutant normalized to PSD-95-PDZ2 WT)” value is listed as 6 fold at PSD-95-PDZ2 V229A and 4 fold at PSD-95-PDZ2 K165A. For the same compound, the “fold decrease in affinity (Kd mutant normalized to PSD-95-PDZ2 WT)” value at PSD-95-PDZ2 H225A was “completely abolished”.
